{
  "source": "patent US8361797B2",
  "about": "“Myeloma cell culture in transferrin-free low iron medium” (Medimmune Limited, priority 2003, dated 2013)",
  "assay_type": "physicochemical",
  "note": "Read-outs that look alike come from different tables or passages of the source.",
  "data": [
    {"substance": "ferric ammonium citrate [FAC]", "values": [
      {"measurement": "precipitate in culture", "setting": "10 mg/L, Cell line A cultures", "result": "a small amount of rust coloured precipitate was observed"},
      {"measurement": "precipitate in culture", "setting": "50 mg/L, Cell line A cultures", "result": "observed in much larger quantities"},
      {"measurement": "precipitate in culture", "setting": "50 mg/L, hybridoma cultures", "result": "a rust coloured precipitate was seen"},
      {"measurement": "precipitate in culture", "setting": "100 mg/L, Cell line A cultures", "result": "observed in much larger quantities"},
      {"measurement": "precipitate in culture", "setting": "100 mg/L, hybridoma cultures", "result": "a rust coloured precipitate was seen"}
    ]}
  ]
}
